The results in this text go back to ChEMBL document CHEMBL1240342, “Molecular modeling studies of vascular endothelial growth factor receptor tyrosine kinase inhibitors using QSAR and docking” (J Mol Graph Model, 2009).

By UniProt entry, the sequences of proteins in these tests, tags left out.
UniProt P35968, whole entry: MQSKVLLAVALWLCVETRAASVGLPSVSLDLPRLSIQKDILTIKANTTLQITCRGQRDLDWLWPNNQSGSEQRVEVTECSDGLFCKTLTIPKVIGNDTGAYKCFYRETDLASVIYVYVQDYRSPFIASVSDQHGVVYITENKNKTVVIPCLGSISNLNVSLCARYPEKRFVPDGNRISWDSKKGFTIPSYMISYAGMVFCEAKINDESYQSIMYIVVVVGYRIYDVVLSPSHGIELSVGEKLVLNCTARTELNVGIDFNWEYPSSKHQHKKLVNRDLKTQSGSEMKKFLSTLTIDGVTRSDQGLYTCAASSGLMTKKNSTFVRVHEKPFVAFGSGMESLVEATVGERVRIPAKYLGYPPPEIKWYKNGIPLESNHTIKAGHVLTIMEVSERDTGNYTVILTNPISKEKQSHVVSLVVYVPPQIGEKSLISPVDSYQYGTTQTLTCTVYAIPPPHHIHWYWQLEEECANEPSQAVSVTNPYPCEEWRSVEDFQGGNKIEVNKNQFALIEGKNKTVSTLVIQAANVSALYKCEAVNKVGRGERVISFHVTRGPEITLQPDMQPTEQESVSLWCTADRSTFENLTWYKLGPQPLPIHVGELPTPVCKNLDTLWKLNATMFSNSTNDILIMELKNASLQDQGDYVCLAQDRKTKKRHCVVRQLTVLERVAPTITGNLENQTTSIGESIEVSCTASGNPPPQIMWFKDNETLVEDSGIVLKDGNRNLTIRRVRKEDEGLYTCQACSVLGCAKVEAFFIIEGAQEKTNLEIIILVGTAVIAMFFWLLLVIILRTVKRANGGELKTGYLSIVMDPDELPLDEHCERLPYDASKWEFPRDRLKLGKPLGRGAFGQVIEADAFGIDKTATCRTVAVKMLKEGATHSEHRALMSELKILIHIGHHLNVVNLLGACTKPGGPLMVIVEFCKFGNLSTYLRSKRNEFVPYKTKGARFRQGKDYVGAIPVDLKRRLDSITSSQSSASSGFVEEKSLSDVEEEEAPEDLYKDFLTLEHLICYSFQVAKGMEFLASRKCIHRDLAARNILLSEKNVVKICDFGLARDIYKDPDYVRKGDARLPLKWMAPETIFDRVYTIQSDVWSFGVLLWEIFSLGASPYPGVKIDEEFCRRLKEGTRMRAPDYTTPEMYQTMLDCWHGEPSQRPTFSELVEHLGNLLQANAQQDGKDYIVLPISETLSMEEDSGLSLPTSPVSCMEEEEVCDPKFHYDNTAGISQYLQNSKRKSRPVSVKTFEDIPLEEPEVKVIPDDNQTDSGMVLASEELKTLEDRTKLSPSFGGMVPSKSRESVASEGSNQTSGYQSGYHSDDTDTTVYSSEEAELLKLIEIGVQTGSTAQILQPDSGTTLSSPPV

As a reminder, the IC50 is the concentration that gives 50% inhibition. A higher IC50 goes with weaker potency in that assay.

In the test the target is Vascular endothelial growth factor receptor 2 (Homo sapiens, UniProt P35968). The test is described as follows: Inhibition of human VEGFR2 after 60 mins.

The compound `COc1cc2nccc(Oc3ccc4c(C(=O)Nc5ccc(Cl)cc5)cccc4c3)c2cc1OC` gave an IC50 of 0.49 nM.
